Target: T1, human IL-1 type 1 receptor (IL-1R1) (human, UniProt P14778 18-336, limits assumed)
T1 construct: SPR reagent; also called IL-1RI; interleukin-1 type I receptor
T1 sequence (looked up): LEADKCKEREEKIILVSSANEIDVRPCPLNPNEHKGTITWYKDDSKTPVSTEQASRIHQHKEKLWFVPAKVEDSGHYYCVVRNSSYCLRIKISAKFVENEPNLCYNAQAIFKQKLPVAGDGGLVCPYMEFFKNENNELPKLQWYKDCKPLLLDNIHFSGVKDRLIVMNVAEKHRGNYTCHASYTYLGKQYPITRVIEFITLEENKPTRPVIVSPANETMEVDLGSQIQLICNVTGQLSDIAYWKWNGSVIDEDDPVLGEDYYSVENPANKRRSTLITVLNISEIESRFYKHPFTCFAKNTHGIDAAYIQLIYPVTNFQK
Assay: surface plasmon resonance

B1: IL-1Ra (comparator test ligand of Table 24, 'an IL-1Ra') (ligand)
chain: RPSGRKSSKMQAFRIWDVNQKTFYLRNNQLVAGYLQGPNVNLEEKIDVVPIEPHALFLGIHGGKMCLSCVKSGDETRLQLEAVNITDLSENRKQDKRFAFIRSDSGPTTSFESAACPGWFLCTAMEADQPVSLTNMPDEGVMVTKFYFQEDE
  Kd: 0.05 nM
  koff: 3.91e-05 s⁻¹
  kon: 854000 M⁻¹ s⁻¹

From patent US20220339099A1 (published 2022)
